According to patent publication US12605517B1 (Belhaven BioPharma Inc., priority 2024, dated 2026):

Test: Study 101, plasma epinephrine pharmacokinetics
Assay type: in vivo
Conditions: human, 0.5 mg IM, read-out: Cmax (GeoMean)
Description: Each patient was provided each treatment of the trial with 72-hour washout periods between each treatment, beginning with a 3.5 mg intranasal dose, followed by a 0.3 mg intramuscular dose, followed by a 0.5 mg intramuscular dose, and concluding with a 5.5 mg intranasal dose, with a safety follow-up performed 3 to 5 days after the final dose was administered. The primary endpoints of the study were pharmacokinetic measurements and assessments of comparative bioavailability, while the secondary endpoints were safety concerns and pharmacodynamic assessments.

## CNC[C@H](O)c1ccc(O)c(O)c1 [Epinephrine IM, epinephrine]
  Cmax: 0.382 ng/mL
